Literature values as cited in paper PMC2751796 (Pharmacology & therapeutics, 2009).

Key:
P-gp [1] = conditions: ref Hugnet et al., 1996; Mealey et al., 2001, 2003, 2008; Sartor et al., 2004; cited from earlier work
P-gp [2] = conditions: ref Schinkel et al., 1994; cited from earlier work

ivermectin
Effect of exposure in Collie and other dog breeds that naturally lack P-gp (P-gp [1]): neurological symptoms | Greater sensitivity to neurotoxicity in Mdr1a-/- KO mice (P-gp [2]): ~100 fold
